Results reported in paper PMC11906766 (Scientific Reports, 2025).
Marks after values point to notes of the source that are not given here.

Amino acid sequences for entries named in this document (tags omitted).
UniProt P21397, whole entry: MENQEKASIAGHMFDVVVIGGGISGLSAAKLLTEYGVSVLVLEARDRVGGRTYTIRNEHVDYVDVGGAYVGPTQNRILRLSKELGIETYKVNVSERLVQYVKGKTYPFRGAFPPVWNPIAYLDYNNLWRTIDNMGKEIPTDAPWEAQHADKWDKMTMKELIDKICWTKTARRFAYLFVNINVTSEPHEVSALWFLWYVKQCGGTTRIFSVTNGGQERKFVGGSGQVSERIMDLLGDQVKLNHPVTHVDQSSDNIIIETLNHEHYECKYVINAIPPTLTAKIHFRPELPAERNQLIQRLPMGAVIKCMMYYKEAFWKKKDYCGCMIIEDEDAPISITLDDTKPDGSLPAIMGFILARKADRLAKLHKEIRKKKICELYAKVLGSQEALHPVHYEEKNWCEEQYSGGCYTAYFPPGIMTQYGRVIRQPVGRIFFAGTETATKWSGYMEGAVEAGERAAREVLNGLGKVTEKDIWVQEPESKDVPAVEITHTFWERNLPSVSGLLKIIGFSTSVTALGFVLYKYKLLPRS

Target: hMAO-A (Homo sapiens, UniProt P21397)
Assay: hMAO-A inhibition assay
Type: biochemical
Settings: % inhibition at 0.1 µM

hMAO-A % inhibition: 79.9% ± 0.46 ^c
SMILES: C#CCN(C)CCCOc1ccc(Cl)cc1Cl [Clorgyline, reference compound]
